Sequences of proteins named here, by UniProt entry; tags and fusion partners are left off. Residues count along the entry.
UniProt P37173, 23-166: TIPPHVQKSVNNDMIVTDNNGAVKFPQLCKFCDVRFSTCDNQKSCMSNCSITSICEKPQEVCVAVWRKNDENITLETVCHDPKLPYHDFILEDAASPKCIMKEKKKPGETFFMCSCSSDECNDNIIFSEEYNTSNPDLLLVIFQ

According to PMC12347602:

Target: recombinant mTGF-β1 (mouse)
Test: ELISA; indirect ELISA; mTGF-β1 coated at 0.2 µg/mL overnight at 4 °C; serial dilutions of sample 1 h at 37 °C; detection with goat anti-human IgG Fc-HRP

EC50: 0.0619 nM
Substance: soluble TGF-β receptor II (TGF-βRII) (from UniProt P37173 23-166)
